Results: patent US20080293712A1, “Benzo[C][2,7]Naphtyridine Derivatives, Methods of Making Thereof and Methods of Use Thereof” (WYETH, priority 2007, published 2008)

Molecular target: T1, PDK-1 (Homo sapiens, UniProt O15530)
T1 sequence (O15530 1-556): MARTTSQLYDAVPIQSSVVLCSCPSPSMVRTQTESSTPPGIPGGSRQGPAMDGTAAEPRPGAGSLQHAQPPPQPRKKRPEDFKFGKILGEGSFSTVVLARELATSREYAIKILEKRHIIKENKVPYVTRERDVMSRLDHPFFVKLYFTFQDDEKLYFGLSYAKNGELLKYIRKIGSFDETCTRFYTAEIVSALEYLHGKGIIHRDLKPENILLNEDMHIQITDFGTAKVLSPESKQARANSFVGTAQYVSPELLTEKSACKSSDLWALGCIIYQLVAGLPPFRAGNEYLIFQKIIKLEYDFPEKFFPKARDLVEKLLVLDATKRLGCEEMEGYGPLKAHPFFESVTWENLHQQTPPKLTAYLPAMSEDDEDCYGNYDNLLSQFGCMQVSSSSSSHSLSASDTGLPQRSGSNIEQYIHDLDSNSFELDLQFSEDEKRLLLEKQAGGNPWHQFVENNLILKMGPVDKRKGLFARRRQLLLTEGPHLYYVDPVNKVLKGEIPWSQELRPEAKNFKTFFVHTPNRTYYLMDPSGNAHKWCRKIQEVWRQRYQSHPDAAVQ
Assay: PDK-1 kinase inhibition ELISA assay (phosphorylation of His6-tagged SGK1 S422D by PDK-1)
Format: biochemical

COCCOc1cc2ncc3c(N)nc(-n4ccnc4)cc3c2cc1OC [Ia-48, 2-(1H-imidazol-1-yl)-9-methoxy-8-(2-methoxyethoxy)benzo[c]-2,7-naphthyridin-4-amine]
IC50: 70 nM
